Source: PubChem BioAssay
Rows were chosen to be rich in hits. Some 1.8% of all compounds tested hit in one or more screens of this group.
E-selectin induc – E-selectin induction on HUVECs | HUVEC E-selectin immunofluorescence imaging; normalized: neutral wells 0, TNF-alpha wells 100 | 0.37% of 260,000 active | AID 686992 | P16581 | activation, % at 7.58 µM;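 active = mean E-selectin-positive cell signal at least 10% of the positive control, reached in at least 60% of replicates, without over 20% cell loss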
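Test system: HUVEC; input: 3,000 HUVEC/well; measured by: immunofluorescence imaging; read-out: % PE-positive cells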
UUG fidelity – modulators of start codon recognition fidelity in yeast; AID 602363; activity score, % at 18.7 µM; S. cerevisiae UUG-firefly luciferase reporter, luminescence/redox ratio; 0.13% of 350,000 active;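 active = replicate mean at a twofold rise or more, about +100% in these data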;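 note: firefly luciferase made from a UUG start codon reports start codon fidelity; reporter light over untreated wells divided by growth signal over untreated wells; some hits fall short of that in this replicate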
RAD52 anneal inh – inhibitors of human RAD52 DNA annealing; AID 651710; inhibition, % at 18.7 µM; P43351; recombinant RAD52 DNA annealing, FRET fluorescence; 0.46% of 360,000 active;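 active = every replicate showing at least 50% inhibition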
SIRT5 block – sirtuin-5 (human) deacylase inhibition; inhibition, % at 15 µM; AID 652115; 1.1% of 330,000 active; Q9NXA8; Purified SirT5, succinyl-peptide AMC, trypsin-coupled fluorescence; in the data active = inhibition above about 15%
RAD54 inh – blocks human RAD54 Holliday junction branch migration; FAM/BHQ fluorescence; inhibition, % at 10.4 µM; 0.14% of 360,000 active; AID 602329;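 active = mean normalized replicate activity at least 40 and at least half of replicates scoring 40 or more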;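 note: 0% = median of neutral control wells and 100% = median of positive control wells; inhibitors cause a drop in the FAM fluorescence signal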
MLL AF4-AF9 inh – blocks AF4 peptide binding to human AF9. inhibition, % at 10 µM. 0.47% of 350,000 active. AlphaScreen, biotin-AF4 peptide binding to FLAG-AF9. P42568;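 active = every replicate reaching a set inhibition limit, whatever the replicate mean, cut at about 25% in these data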;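 note: 0% = plate neutral control median and 100% = total signal loss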
Active calls of the source: *; nt = no result given; ! = not confirmed by another sample.

Results follow in this order: E-selectin induc	UUG fidelity	RAD52 anneal inh	SIRT5 block	RAD54 inh	MLL AF4-AF9 inh
1) C[C@]12c3[nH]c4ccccc4c3CCN1C(=O)C(CC(=O)NCc1cccc(C(F)(F)F)c1)C[C@@H]2C(=O)N1CCOCC1 (stereo not given in full)
    3	21	3	2	-7	3
2) CC[C@]12c3[nH]c4ccccc4c3CCN1C(=O)C(CC(=O)NCCC1=CCCCC1)C[C@@H]2C(=O)N1CCN(C(=O)C2CC2)CC1 (stereo not given in full)
    0	-18	-4	3	-4	-1
3) N#Cc1cccc(-c2ccc(C3[C@@H]4CN(C(=O)Nc5ccc6c(c5)OCO6)C[C@H]3N4)cc2)c1 (stereo not given in full)
    -1	nt	55*	9	nt	13
4) Cc1cccc(-c2ccc(C3[C@@H]4CN(C(=O)Nc5ccccc5)C[C@H]3N4)cc2)c1 (stereo not given in full)
    0	nt	nt	nt	nt	nt
5) O=C(Nc1ccc2c(c1)OCO2)N1C[C@@H]2N[C@H](C1)C2c1ccc(-c2ccccc2)cc1 (stereo not given in full)
    0	nt	68*	2	nt	31*
6) N#Cc1ccc(-c2ccc(C3[C@@H]4CN(C(=O)c5ccc6c(c5)OCO6)C[C@H]3N4)cc2)cc1 (stereo not given in full)
    -1	nt	56*!	3	nt	-5
7) C[C@@H]1CCCCO[C@H](CN(C)C(=O)NC2CCCCC2)[C@H](C)CN([C@H](C)CO)C(=O)c2cc(NC(=O)NC3CCCCC3)ccc2O1
    0	15	12	4	4	-2
8) COc1cccc(CN2C[C@@H]3N[C@H](C2)C3c2ccc(-c3ccc(C#N)cc3)cc2)c1 (stereo not given in full)
    0	nt	71*!	9	nt	5
9) Cc1cccc(-c2ccc(C3[C@@H]4CN(Cc5ccccc5)C[C@H]3N4)cc2)c1 (stereo not given in full)
    0	nt	50*	-10	nt	8
10) COc1ccccc1-c1ccc(C2[C@@H]3CN(Cc4cccc(F)c4)C[C@H]2N3)cc1 (stereo not given in full)
    0	nt	nt	nt	nt	nt
11) COc1cc(CN2C[C@@H]3N[C@H](C2)C3c2ccc(-c3ccc(C#N)cc3)cc2)cc(OC)c1 (stereo not given in full)
    0	nt	nt	nt	nt	nt
12) COc1cccc(CN2C[C@@H]3N[C@H](C2)C3c2ccc(-c3ccccc3OC)cc2)c1 (stereo not given in full)
    0	nt	51*	4	nt	13
13) CC(Oc1ccccc1)C(=O)Nc1nnc(C2CCCCC2)s1 (stereo not given)
    nt	nt	-3	22*	nt	2
14) COc1ccc2ccccc2c1/C=N/NC(=O)c1nnn(-c2nonc2N)c1C(C)C
    1	-17	2	28*	6	4
15) C/C=C/c1ccc2c(c1)O[C@H](CN(C)C(=O)C1CCOCC1)[C@H](C)CN([C@H](C)CO)S2(=O)=O
    0	8	-7	-3	-7	-2
16) CCOc1ccc(N(CC(=O)NCC2CCCO2)C(=O)CCC(=O)Nc2nccs2)cc1 (stereo not given)
    nt	-11	-23	17*	-5	3
17) C[C@H](CO)N1C[C@H](C)[C@H](CN(C)C(=O)c2ccncc2)OCCCC[C@H](C)Oc2ccc(NC(=O)Cc3ccccc3)cc2C1=O
    nt	-6	0	4	15	10
18) CC/C(=C(\c1ccccc1)c1ccc(OCCN(C)C)cc1)c1ccccc1
    -2	-8	18	-5	12	30*!
19) CCC(=O)N1CCc2cc(S(=O)(=O)N3CCc4ccccc43)ccc21
    nt	-14	nt	nt	2	nt
20) O=C(O)CCCC(=O)N1CCc2cc(S(=O)(=O)N3CCc4ccccc43)ccc21
    nt	-1	-17	28*	-4	6
21) O=c1oc2ccccc2c(Nc2cc3ccccc3cc2O)c1[N+](=O)[O-]
    nt	nt	2	6	nt	-1
22) O=c1oc2ccccc2c(Nc2ccccc2O)c1[N+](=O)[O-]
    nt	nt	-6	17*	nt	0
23) CN(C)CC#Cc1cccc(-c2nc(C(=O)N[C@@H]3CCN(Cc4ccccc4)C3)cc3c2[C@@H](CCO)N(S(=O)C(C)(C)C)C3)c1 (stereo not given in full)
    nt	nt	34	2	nt	9
24) CC(C)(C)OC(=O)CNC(=O)c1nc[nH]c1C(=O)NCc1ccc(CNC(=O)OC(C)(C)C)cc1
    nt	-5	-2	-3	-3	3

From no. 15 up to 17, copied from above:
Results follow in this order: E-selectin induc	UUG fidelity	RAD52 anneal inh	SIRT5 block	RAD54 inh	MLL AF4-AF9 inh
15) C/C=C/c1ccc2c(c1)O[C@H](CN(C)C(=O)C1CCOCC1)[C@H](C)CN([C@H](C)CO)S2(=O)=O
    0	8	-7	-3	-7	-2
16) CCOc1ccc(N(CC(=O)NCC2CCCO2)C(=O)CCC(=O)Nc2nccs2)cc1 (stereo not given)
    nt	-11	-23	17*	-5	3
17) C[C@H](CO)N1C[C@H](C)[C@H](CN(C)C(=O)c2ccncc2)OCCCC[C@H](C)Oc2ccc(NC(=O)Cc3ccccc3)cc2C1=O
    nt	-6	0	4	15	10
